KinaseGlo FLuc: counter-screen: inhibitors of Kinase-Glo firefly luciferase; Kinase-Glo luciferase, ATP luminescence, 8 min; Potency, µM (doses to about 38.3 µM), for the others: at the top dose activity change, negative = inhibition, hits mostly inhibitors; AID 1379; Q27757; 200,000 tested, 0.28% active; further: potency means the concentration at half of the fitted maximal effect; on the % scale 0 is the no-effect control and ±100 the full control effect; nearly all actives have a fitted effect of over 60% in size
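Recombinant Kinase-Glo luciferase, 10 uM ATP (linear range), luciferin; imidazole pH 7.2 / KCl / MgCl2 / Tween / BSA buffer; 8 min RT; luminescence.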
GALK inhibitor: blocks human galactokinase activity; 270,000 tested, 0.007% active; Potency, µM (highest dose often 57.5 µM), without a hit: at the highest dose activity change, negative = inhibition, usual class: inhibitors; Purified GALK, Kinase-Glo residual ATP luminescence; P51570; further: potency means the concentration at half of the fitted maximal effect; on the % scale 0 is the no-effect control and ±100 the full control effect
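ATP-depletion format; final 35 uM ATP, 100 uM D-galactose, 5 nM enzyme; pH 8.0 HEPES/Mg2+ buffer; 60 min RT; luminescence read 10 min after detection reagent.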
RXFP1 antag: antagonists of human relaxin receptor RXFP1 | Q9HBX9 | HEK293-RXFP1, relaxin-stimulated cAMP HTRF, 30 min; hits give low values | activity change, negative = inhibition, % at 57.5 µM | 350,000 tested, 0.59% active;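 active means activity change of -60% or lower, but not beyond a set lower limit; inconclusive means change between -60% and -40%, or beyond the set limit; inactive means change above -40%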; further: on the % scale 0 is the no-effect control and ±100 the full control effect
PKM2 act: activators of human pyruvate kinase M2. P14618. purified PKM2, Kinase-Glo ATP luminescence, activation; response scale: 0% is enzyme alone, no compound. Potency, µM (top dose mostly 57.5 µM), without a hit: at the top dose activation, hits mostly activators. 260,000 tested, 0.34% active. AID 1631; further: potency means the concentration at half of the fitted maximal effect; on the % scale 0 is the no-effect control and ±100 the full control effect; nearly all actives have a fitted effect of over 55% in size
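Kinase-Glo luminescence reports ATP generated from ADP (0.1 mM) and PEP (0.5 mM) by purified hPK-M2 after 1 h at room temperature, pH 7.2 imidazole buffer; intermediate enzyme activity allows detecting inhibitors and activators.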
RXFP1 ag: agonists of human relaxin receptor RXFP1; Q9HBX9; HEK293T-RXFP1 cAMP TR-FRET, 30 min; response scale: percent of porcine relaxin response, buffer zero; Potency, µM (highest dose often 57.5 µM), without a hit: at the highest dose activation, actives largely listed as activators; 370,000 tested, 0.3% active; AID 2676; further: potency means the concentration at half of the fitted maximal effect; on the % scale 0 is the no-effect control and ±100 the full control effect; nearly all actives have a fitted effect of over 60% in size
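HEK293 cells stably expressing RXFP1, treated 30 min at 37C with compounds plus PDE4 inhibitor Ro 20174; cAMP measured by HTRF TR-FRET. Normalized to buffer and 29 nM porcine relaxin; EC50 by Hill fit.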
miR-21 FLuc: miR-21 reporter, rising signal | 340,000 tested, under 10 active | AID 2288 | HeLa miR-21 FLuc reporter, luciferase, 48 h | Potency, µM (titrated, usually from 38.3 µM), for inactives: at the highest dose reporter change, positive = more light; active = well fitted rising curve with a large enough effect; inconclusive = small, poorly fitted or top-dose-only effect; inactive = no such curve, though single readings can be large or run the other way;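 further: % of control where 0% means no effect; miR-21 action dims this reporter so a rising signal means less miR-21 action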
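HeLa cells endogenously expressing miR-21, stably carrying CMV-driven firefly luciferase with a downstream miR-21 binding site, 2000 cells/well. Titrations up to approximately 40 uM, 48 hours; luciferase luminescence read.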
* marks the source's active call; other numbers are inactive results; ? = inconclusive; . = no result; ! = not confirmed by another sample; [ ] = another dose, or the depositor's remark. Shown are actives, neighbours in structure and some others; about 0.92% of the full set was active somewhere. Unless noted, the call rests on the fitted dose curve; in most records, active means well fitted curve in the direction sought with a large enough effect; inconclusive means small, poorly fitted or top-dose-only effect, or another doubt; inactive means no such curve, though single readings can be large; an effect the other way counts as inactive or inconclusive.

SMILES	KinaseGlo FLuc	GALK inhibitor	RXFP1 antag	PKM2 act	RXFP1 ag	miR-21 FLuc
Cn1c(SCC(=O)N/N=C/c2ccco2)nc2ccccc21	-1%	-1%	.	8%	2%	-5%
CC(/C=N/NC(=O)CSc1nc2ccccc2n1C)=C\c1ccco1	-6%	0%	-1	5µM*	2%	3%
COC(=O)c1ccc(Cn2cc(/C=C\[N+](=O)[O-])c3ccccc32)o1	.	1%	-95*	?	-2%	?
O=C(O)c1ccc(Cn2cc(/C=C\[N+](=O)[O-])c3ccccc32)o1	.	-10%	12	6%[11.5 µM]	0%	-1%
CC(CCc1ccccc1)NC(=O)c1ccccc1Cl (stereo not drawn)	.	1%	-74*	0%	2%	-6%
COCCOCC(OC)OC	.	.	-10	.	.	.
c1ccc(-c2cn3nc4c(nc3n2)CCCC4)cc1	14µM*	4%	4	-34%	8%	26%
Cc1nc2nc(-c3ccc(F)cc3)cn2nc1C	.	12%	13	.	20%	-19%
Cc1nc2nc(-c3ccccc3)cn2nc1C	10µM*	13%	-5	-48%	10%	-15%
CCn1c(C)c(CS(=O)(=O)c2ccccc2)[nH]c1=O	-2%	0%	17	10%	3%	8%
C[C@H]1Cc2c(COc3ccccc3)nc3c(c2CO1)CN(C(=O)C1CC1)CC3	-3%[7.66 µM]	.	.	-1%[11.5 µM]	.	.
Cc1cccc(Nc2nc(-c3ccc(F)cc3)cs2)n1	.	-6%	-78*	-5%[11.5 µM]	0%	-36%
COc1ccc(-c2csc(Nc3cccc(C)n3)n2)cc1	.	-1%	-8	0%[11.5 µM]	1%	-35%
Clc1ccc(-c2nc(-c3ccccn3)no2)cc1Cl	10µM*	0%	-7	-25%	-2%	-54%
COc1ccc(-c2nc(-c3ccncc3)no2)cc1	.	2%	-2	.	5%	-64%
COc1ccc(-c2nc(-c3ccccn3)no2)cc1	0.89µM*	24%	-5	-84%	27%	?
Cc1ccccc1-c1nc(-c2cccnc2)no1	9%	6%	-5	-3%	3%	-48%
Cc1ccccc1-c1nc(-c2ccccn2)no1	6.3µM*	14%	3	-87%	1%	29%
Brc1ccc(-c2nc(-c3ccccn3)no2)o1	13µM*	5%	2	-67%	3%	27%
CCN(CC)CCNC(=O)C1(O)c2cc(Br)ccc2NC(=O)N1c1ccccc1 (stereo not drawn)	.	-5%	6	.	2%	-5%
Cc1n[nH]c(C)c1N1C(=O)c2cccc3c(N4CCCCCC4)ccc(c23)C1=O	0%	-3%	-65*	2%	4%	0%
O=C(NCc1cccnc1)c1cc(-c2ccco2)on1	5%	-2%	1	22µM*	0%	-23%
Cc1ccc(-c2cc(C(=O)NCc3cccnc3)no2)cc1	4%	1%	-1	2%	1%	-39%
CC(Sc1ncnc2sc(-c3ccccc3)cc12)C(=O)NCC1CCCO1 (stereo not drawn)	.	.	-98*	.	2%	.
CCc1cccc2c(SC(C)C(=O)NCC3CCCO3)nc(-c3ccccc3)nc12 (stereo not drawn)	2%	0%	7	1%	-2%	-6%

2 consecutive entries from above, quoted:
SMILES	KinaseGlo FLuc	GALK inhibitor	RXFP1 antag	PKM2 act	RXFP1 ag	miR-21 FLuc
Cn1c(SCC(=O)N/N=C/c2ccco2)nc2ccccc21	-1%	-1%	.	8%	2%	-5%
CC(/C=N/NC(=O)CSc1nc2ccccc2n1C)=C\c1ccco1	-6%	0%	-1	5µM*	2%	3%

Further results.
SMILES	KinaseGlo FLuc	GALK inhibitor	RXFP1 antag	PKM2 act	RXFP1 ag	miR-21 FLuc
Cc1sc2nc[nH]c(=S)c2c1-c1ccccc1	3%	-1%	-91*	0%	3%	4%
COc1cc(/C=C2\SC(=O)N(c3cccc(Cl)c3)C2=O)cc([N+](=O)[O-])c1O	-1%	5%	-34	7.9µM*	-2%	0%
Cc1cc(C)cc(NC(=O)CN2CCc3cc4c(cc3C2C)OCCCO4)c1 (stereo not drawn)	.	5%	-62*	0%[0.46 µM]	1%	-1%
CCOc1ccc(C2C(=O)N(C3CCCCCC3)CC(=O)N2CCc2ccccc2)cc1OC (stereo not drawn)	.	.	10	.	-1%	-7%
COc1cc(NC(=O)Cn2c(=O)n(Cc3ccccc3Cl)c(=O)c3cc(OC)c(OC)cc32)cc(OC)c1	.	.	.	.	25µM*	2%
Cc1cc(C(=O)N/N=C/c2ccc(O)c(O)c2O)c(C)n1-c1ccccc1	-7%	0%	-7	28µM*	0%	-21%
CN(C)CCNC(=O)c1ccc(-n2c(=O)c(=O)[nH]c3ccccc32)cc1	0%	.	.	.	.	.
COc1ccc(COC(=O)NC2CCN(S(=O)(=O)c3ccc(OC)cc3)CC2)cc1	-3%	0%	36	20µM*	-1%	17%
COc1ccc(S(=O)(=O)N2CCN(C(=O)NCc3ccccc3)CC2)cc1	3%	0%	-1	7.1µM*	-1%	-5%
COc1ccc(CNC(=O)C2=CCN(S(=O)(=O)c3ccc(C)cc3)CC2)cc1	.	5%	-6	14µM*	1%	6%
COc1ccc(S(=O)(=O)Cc2ccc(C(=O)NC3CCCCCC3)o2)cc1	.	4%	-102*	.	2%	-4%
COc1ccc(CNC(=O)N2CCN(S(=O)(=O)c3ccccc3)CC2)cc1	.	-2%	-21	.	3%	2%
O=C(CN1CCN(S(=O)(=O)c2ccc(Cl)cc2)CC1)N1CCCC1	.	.	-5	.	-1%	.
Cc1ccn2c(NCc3ccccc3)c(-c3cccs3)nc2c1	-8%	-1%	-77*	-3%	10%	-57%
Cc1ccn2c(NC(=O)c3ccccc3)c(-c3cccs3)nc2c1	-1%	-1%	15	5%	-4%	-24%
CC(C)C(=O)OCc1cccc(OC(=O)[C@@H]2N3C(=O)[C@@H](NC(=O)Cc4ccccc4)[C@H]3SC2(C)C)c1	.	.	-18	.	.	.
Cc1ccc(S(=O)(=O)N(C(=O)c2ccco2)c2cc3sc(=O)oc3c3ccccc23)cc1	2%	-2%	-79*	22%	4%	12%
COc1ccc(S(=O)(=O)N(C(=O)c2ccco2)c2cc3sc(=O)oc3c3ccccc23)cc1	3%	0%	?	25%	0%	-1%
CC(=O)N(c1ccc2oc(=O)sc2c1)S(=O)(=O)c1ccccc1	3%	-1%	-12	?	0%	-2%
CCOc1ccc(S(=O)(=O)N(C(=O)c2ccco2)c2cc3sc(=O)oc3c3ccccc23)cc1	-3%	-1%	-68*	23%	6%	-6%
Cc1cc(=O)oc2c(OS(C)(=O)=O)c(OS(C)(=O)=O)ccc12	-1%[7.66 µM]	.	.	.	.	.
Cc1ccc(C(=O)Nc2cccc(O)c2)cc1S(=O)(=O)N1CCCCCC1	.	0%	-83*!	0%	-1%	-34%
CCCCOC(=O)CCCCCCCCC(=O)OCCCC	.	.	-18	.	.	.

Entries shown so far that contain a Cl atom:
SMILES	KinaseGlo FLuc	GALK inhibitor	RXFP1 antag	PKM2 act	RXFP1 ag	miR-21 FLuc
CC(CCc1ccccc1)NC(=O)c1ccccc1Cl (stereo not drawn)	.	1%	-74*	0%	2%	-6%
Clc1ccc(-c2nc(-c3ccccn3)no2)cc1Cl	10µM*	0%	-7	-25%	-2%	-54%
COc1cc(/C=C2\SC(=O)N(c3cccc(Cl)c3)C2=O)cc([N+](=O)[O-])c1O	-1%	5%	-34	7.9µM*	-2%	0%
COc1cc(NC(=O)Cn2c(=O)n(Cc3ccccc3Cl)c(=O)c3cc(OC)c(OC)cc32)cc(OC)c1	.	.	.	.	25µM*	2%
O=C(CN1CCN(S(=O)(=O)c2ccc(Cl)cc2)CC1)N1CCCC1	.	.	-5	.	-1%	.

Source: PubChem BioAssay
